Measured values reported in ChEMBL document CHEMBL1142276, “Synthesis, cannabinoid receptor affinity, and molecular modeling studies of substituted 1-aryl-5-(1H-pyrrol-1-yl)-1H-pyrazole-3-carboxamides” (J Med Chem, 2008).

The chains behind the UniProt entries cited, without tags or fusion partners.
UniProt P34972, whole entry: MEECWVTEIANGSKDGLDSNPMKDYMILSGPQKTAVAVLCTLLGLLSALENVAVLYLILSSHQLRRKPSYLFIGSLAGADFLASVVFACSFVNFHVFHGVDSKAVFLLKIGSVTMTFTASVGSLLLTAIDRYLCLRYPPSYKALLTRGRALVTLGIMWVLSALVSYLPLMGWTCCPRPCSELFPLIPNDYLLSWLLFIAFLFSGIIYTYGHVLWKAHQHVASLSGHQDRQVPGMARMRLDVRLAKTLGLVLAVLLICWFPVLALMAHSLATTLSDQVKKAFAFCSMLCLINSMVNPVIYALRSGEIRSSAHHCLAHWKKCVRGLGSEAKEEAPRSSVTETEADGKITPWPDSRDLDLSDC

Target: Cannabinoid receptor 2 (Homo sapiens, UniProt P34972)
Experiment: Displacement of [3H]CP-55940 from human recombinant CB2 receptor expressed in HEK cells
Type: cell-based, HEK293

Ki: 112 nM
Compound: Cc1c(C(=O)NN2CCCCC2)nn(-c2ccc(Cl)cc2Cl)c1-c1ccc(I)cc1
